# In patent US7691907B2, “Methods and composition based on discovery of metabolism of nitroglycerin” (priority 2002, dated 2010):
# Some compounds may have been tested in ways that are not shown here.
# Tested on: rabbit thoracic aorta rings
# Assay: Rabbit aortic ring vasorelaxation assay
# Assay type: cell-based, New Zealand white rabbits
substance,measurement,setting,value
sodium nitroprusside,effect of GTN tolerance on SNP-induced relaxations,GTN tolerant rings compared to control,no effect
same,effect of preincubation with the mtALDH inhibitors on relaxation induced by this vasodilator,preincubation with mtALDH inhibitors,did not attenuate relaxation
